Test results: patent US20030220310A1, “Epoxy-steroidal aldosterone antagonist and calcium channel blocker combination therapy for treatment of congestive heart failure” (priority 2003, published 2003)

Assay: Thermogravimetric analysis of solvates (desolvation)
Type: physicochemical
Conditions: eplerenone crystalline solvate; extrapolated from final solvent weight loss step, TGA, 10° C./minute, nitrogen purge
Procedure: Thermogravimetric analysis of solvates was performed using a TA Instruments TGA 2950 thermogravimetric analyzer. Samples were placed in an unsealed aluminum pan under nitrogen purge. Starting temperature was 25° C. with the temperature increased at a rate of about 10° C./minute.
The unit cell of the solvate is composed of four eplerenone molecules. […] The unit cell of Form H is composed of four eplerenone molecules. The unit cell of Form L is composed of two eplerenone molecules. The solvate unit cells are converted during desolvation into Form H and/or Form L unit cells when the eplerenone molecules undergo translation and rotation to fill the spaces left by the solvent molecules.

## CCCO [n-Propanol]
  Desolvation Temperature: 129 °C
